# Experimental data: PubChem BioAssay AID521 (Sanford-Burnham Center for Chemical Genomics, 2006)
# Protein sequences, listed by entry. Tags and fused reporters are not part of them. Lines headed by an entry give the natural chain unless they say otherwise; changes in a name come on top.
# UniProt P35236: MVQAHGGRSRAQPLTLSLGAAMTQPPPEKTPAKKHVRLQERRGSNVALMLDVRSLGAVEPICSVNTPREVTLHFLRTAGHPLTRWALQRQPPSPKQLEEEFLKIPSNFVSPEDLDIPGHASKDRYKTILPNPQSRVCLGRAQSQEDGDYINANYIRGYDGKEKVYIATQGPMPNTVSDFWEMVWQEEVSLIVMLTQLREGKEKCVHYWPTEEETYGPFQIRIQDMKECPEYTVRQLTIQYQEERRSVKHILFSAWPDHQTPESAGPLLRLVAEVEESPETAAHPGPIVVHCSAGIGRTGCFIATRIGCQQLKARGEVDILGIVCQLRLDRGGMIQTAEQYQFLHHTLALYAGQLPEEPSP
# This is a selection; strong and weak results do not stand in their true shares. Calls of active or inactive are those of the source. Cut-off read from the data, not from the text of the source: active = inhibition above about 50%; inconclusive = no clear call, values can overlap the other calls; inactive = below that.
# Target: Tyrosine-protein phosphatase non-receptor type 7 (Homo sapiens) (UniProt P35236)
# Assay: HePTP tyrosine phosphatase activity blockers – biochemical, absorbance, leukemia target, primary screen (AID 521);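 note: plate controls were vehicle for no effect and reference inhibitor for full effect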
# Settings: recombinant HePTP phosphatase activity, OD absorbance; at 20 µM; stronger effect = higher value
row,SMILES,inhibition
1,O=C(NC(SC1=NCCS1)C(Cl)(Cl)Cl)c1ccc(I)cc1 (stereo not given),inactive: 4%
2,O=C(OC1CN2CCC1CC2)C12CC3CC(CC(C3)C1)C2 (stereo not given),inactive: 9.7%
3,O=C(CF)NC(Sc1ccc(Cl)cc1)C(Cl)(Cl)Cl (stereo not given),inactive: 6.8%
4,O=C(COc1ccccc1)OC1CN2CCC1CC2 (stereo not given),inactive: 5.6%
5,COC(=O)c1ccc(OP(=O)(Oc2ccc(Cl)cc2C)SCC(C)C)cc1 (stereo not given),inactive: -4.9%
6,COP1(=S)c2c(C)nn(CCC#N)c2N=C(c2ccc(F)cc2)N1C (stereo not given),inactive: 3.9%
7,Cc1nn(-c2ccccc2)c2c1P(=O)(N1CCOCC1)N(C)C(c1ccccc1)=N2 (stereo not given),inactive: -5%
8,Cc1ccc(SC(NC(=O)c2ccccc2)C(Cl)Cl)cc1 (stereo not given),inactive: -2.3%
9,Cc1ccc(OCC(=O)OC2CN3CCC2CC3)cc1 (stereo not given),inactive: -5.2%
10,O=P1(Nc2ccc(Br)cn2)COc2ccccc2OC1,inactive: -2.3%
11,O=P1(Nc2ncccn2)COc2ccccc2OC1,inactive: -0.1%
12,Cc1cc(C)nc(SC(NC(=O)c2ccccc2)C(Cl)(Cl)Cl)n1 (stereo not given),inactive: 3.2%
13,Clc1n[nH]nc1-c1nn[nH][15n]1,inactive: 3.2%
14,O=P1(Nc2ccccn2)COc2ccccc2OC1,inactive: 3%
15,Cc1cccc(OCC(=O)OC2CN3CCC2CC3)c1 (stereo not given),inactive: 4%
16,O=P(Nc1nccs1)(c1ccccc1)c1nc2ccccc2s1 (stereo not given),inactive: 13.7%
17,CCOP1(=S)c2c(C)nn(CCC#N)c2N=C(c2ccccc2F)N1C (stereo not given),inactive: -11.9%
18,CCOP1(=S)c2c(C)nn(CCC#N)c2N=C(c2ccc(F)cc2)N1C (stereo not given),inactive: 6.3%
19,COC(=O)c1cc2c(s1)N=C(c1ccccc1)N(C)P2(=O)N1CCOCC1 (stereo not given),inactive: -0.2%
20,COC(=O)NC(Sc1ccc(Cl)cc1)C(Cl)Cl (stereo not given),inactive: -0.3%
21,O=P1(Nc2nc3ccc(Cl)cc3s2)COc2ccccc2O1 (stereo not given),inactive: 3.9%
22,c1nnnn1CCn1cnnn1,inactive: -12.5%
23,O=P(Nc1nccs1)(c1ccccc1)c1ccccc1,inactive: 4.6%
24,O=CNC(Sc1nc2ccccc2o1)C(Cl)(Cl)Cl (stereo not given),inactive: 10.5%
25,CCCCSP(=O)(OCC(C)C)OCC(C)C,inactive: 4.5%
26,O=C(OC1CN2CCC1CC2)c1cccc(Cl)c1 (stereo not given),inactive: -6.7%
27,CCOC(=O)NC(Sc1nc2ccccc2o1)C(Cl)(Cl)Cl (stereo not given),inactive: -5.1%
28,CCc1nc2c(n1)c1c(non1O)c1c2no[n+]1[O-],inactive: 9.6%
29,CCCCOP(=O)(OCCCC)SC,inactive: 4.5%
30,Cc1c2non([O-])c-2c(C)[n+](=O)[n+]1[O-],inactive: 2.8%
